Earlier results on 1 substance are cited in US7018813B2 (priority 2000, dated 2006).

For the data set the following is noted: cited from earlier work.

Read-outs that look alike come from different tables or passages of the source.

Turning to Barium chloride [BaCl2], the solubility in water is, setting by setting: (at 25° C.) 1.8 M; (at 100° C.) 2.8 M.
